For data set [1] the following is noted: dog, 21-day MTD 25 mg/kg.
For data set [2], the target named is PRDM9 (Homo sapiens, UniProt Q9NQV7). The conditions noted are these: 10 μM Compound A; SAM 1 μM; substrate Histone H3.
Data set [3] can be described thus: in vivo. To be noted: rat.
Data set [4] is described as follows: in vivo. To be noted: dog.
The conditions of data set [5]: rat, calculated from 14-day MTD 150 mg/kg.

Chains of the proteins cited; added tags and fusions are not shown. Lines headed by an entry give the natural chain unless they say otherwise; changes in a name come on top.
UniProt Q9NQV7: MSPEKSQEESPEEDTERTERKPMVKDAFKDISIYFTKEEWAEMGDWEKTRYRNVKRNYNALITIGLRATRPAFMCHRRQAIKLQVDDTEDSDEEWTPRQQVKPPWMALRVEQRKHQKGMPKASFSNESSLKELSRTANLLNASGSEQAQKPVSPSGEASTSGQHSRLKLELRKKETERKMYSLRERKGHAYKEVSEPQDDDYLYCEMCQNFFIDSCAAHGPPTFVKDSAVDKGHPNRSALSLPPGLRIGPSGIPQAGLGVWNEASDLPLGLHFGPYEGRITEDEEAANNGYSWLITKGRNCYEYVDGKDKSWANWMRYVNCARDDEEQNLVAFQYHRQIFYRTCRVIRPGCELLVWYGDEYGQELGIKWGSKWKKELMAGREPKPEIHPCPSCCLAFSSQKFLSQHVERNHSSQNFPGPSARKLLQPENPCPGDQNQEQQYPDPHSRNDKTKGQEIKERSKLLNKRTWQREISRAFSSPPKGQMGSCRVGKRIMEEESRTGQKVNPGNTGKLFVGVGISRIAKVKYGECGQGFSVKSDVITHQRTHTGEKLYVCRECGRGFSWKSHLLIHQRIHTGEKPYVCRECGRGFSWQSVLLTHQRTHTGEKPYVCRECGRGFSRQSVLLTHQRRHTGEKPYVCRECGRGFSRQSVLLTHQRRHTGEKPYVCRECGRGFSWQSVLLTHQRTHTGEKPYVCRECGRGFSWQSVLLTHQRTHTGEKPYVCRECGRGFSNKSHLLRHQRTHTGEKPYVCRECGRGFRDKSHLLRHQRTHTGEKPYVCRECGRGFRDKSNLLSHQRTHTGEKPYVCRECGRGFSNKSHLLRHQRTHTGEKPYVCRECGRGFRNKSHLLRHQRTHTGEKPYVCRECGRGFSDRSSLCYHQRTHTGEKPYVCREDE

SMILES strings stand for the structures.

Results on one molecule are retold here after patent US20230094076A1, “COMBINATION THERAPY” (GlaxoSmithKline Intellectual Property Development Limited, priority 2016, published 2023).

As for `CCOCC1(COCC)CCC(c2n[nH]cc2CN(C)CCNC)CC1` [Compound A], the “total AUC or Cave” value in data set [1] was 3.2 µM. Further, in data set [2], the “Average % Inhibition” value is listed as 17.99%. For the same molecule, the MTD at 14 days in data set [3] stood at 150 mg/kg. The same molecule came in with a concentration at 14 days in data set [3] (150 mg/kg) of 2100 nM. For the same molecule, the MTD at 21 days in data set [4] came to 25 mg/kg. In addition, the “total AUC or exposure (Cave)” value in data set [5] was 2.1 µM.
